The target in the test is mouse δ opioid receptor (Mus musculus, UniProt P32300). The conditions noted are these: 3 μM, positive controls.

Amino acid sequences for entries named in this document (tags omitted). A change or cut given only in a name is not applied to a line headed by its entry.
UniProt P32300: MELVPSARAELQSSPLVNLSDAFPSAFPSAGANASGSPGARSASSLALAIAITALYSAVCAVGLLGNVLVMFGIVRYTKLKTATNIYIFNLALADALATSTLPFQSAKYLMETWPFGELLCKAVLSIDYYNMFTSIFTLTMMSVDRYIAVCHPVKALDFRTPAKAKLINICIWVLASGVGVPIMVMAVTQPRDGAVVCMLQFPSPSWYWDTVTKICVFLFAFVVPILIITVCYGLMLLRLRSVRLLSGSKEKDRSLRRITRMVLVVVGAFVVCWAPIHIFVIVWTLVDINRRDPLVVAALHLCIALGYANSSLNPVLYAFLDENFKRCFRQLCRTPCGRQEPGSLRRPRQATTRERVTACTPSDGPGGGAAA

On to SNC80, for which the “displacement of [3H]diprenorphine” value is over 90%.
